# Earlier results, collected in PMC4144739 (The Journal of Experimental Medicine, 2014).
# Settings: ref Arnason, 1999; cited from earlier work
molecule,measurement,value
"IFN-β: effective therapeutic for active EAE and multiple sclerosis (protein, UniProt P01574 22-187, looked up) Interferon beta: MSYNLLGFLQRSSNFQCQKLLWQLNGRLEYCLKDRMNFDIPEEIKQLQQFQKEDAALTIYEMLQNIFAIFRQDSSSTGWNETIVENLLANVYHQINHLKTVLEEKLEKEDFTRGKLMSSLHLKRYYGRILHYLKAKEYSHCAWTIVRVEILRNFYFINRLTGYLRN",therapeutic effect in active EAE and multiple sclerosis,effective therapeutic for active EAE and multiple sclerosis
